In US8309599B2, “Synthesis of FR901464 and analogs with antitumor activity” (University of Pittsburgh-Of The Commonwealth System of …, priority 2006, dated 2012):

Tested on: multidrug resistant subline VCRd5L
Test: Antiproliferative activity in multidrug resistant cells
Assay type: cell-based, Chinese hamster

In the case of CC(=O)O[C@@H](C)/C=C\C(=O)N[C@@H]1C[C@H](C)[C@H](C/C=C(C)/C=C/[C@H]2O[C@](C)(O)C[C@@]3(CO3)[C@@H]2O)O[C@@H]1C [FR901464], the fold resistance (VCRd5L versus DC3F) is reported as 13.5 pm and the “activity in the multidrug resistant cells” value (in words) is reported as “about an order of magnitude less active”.
